# Experimental data as given in PubChem BioAssay AID1117263 (The Scripps Research Institute Molecular Screening Center, 2014).
# Chains of the proteins cited; added tags and fusions are not shown.
# UniProt Q9HAT2, whole entry: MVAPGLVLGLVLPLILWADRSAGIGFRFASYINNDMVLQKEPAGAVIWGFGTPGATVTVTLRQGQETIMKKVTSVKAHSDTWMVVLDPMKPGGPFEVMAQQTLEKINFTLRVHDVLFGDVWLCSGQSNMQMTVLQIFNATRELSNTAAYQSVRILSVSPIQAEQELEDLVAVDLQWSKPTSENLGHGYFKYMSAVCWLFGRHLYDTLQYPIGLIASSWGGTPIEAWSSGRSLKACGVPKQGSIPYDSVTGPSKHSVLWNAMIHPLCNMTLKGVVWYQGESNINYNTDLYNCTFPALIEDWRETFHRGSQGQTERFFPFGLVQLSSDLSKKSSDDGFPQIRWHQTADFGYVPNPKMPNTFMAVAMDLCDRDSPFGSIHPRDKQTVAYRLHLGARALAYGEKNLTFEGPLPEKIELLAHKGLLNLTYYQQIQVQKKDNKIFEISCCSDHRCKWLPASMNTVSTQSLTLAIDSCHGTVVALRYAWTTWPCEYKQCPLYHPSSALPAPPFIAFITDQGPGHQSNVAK
# The list shows a part of the results, in another mix than the full data. Activity calls are given as the source filed them.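 The calls were made as follows: active = mean inhibition of the replicates above the hit cutoff set in the primary screen (cut at about 17% in these data); inactive = the rest.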
# Target: Sialate O-acetylesterase (Homo sapiens) (UniProt Q9HAT2)
# Experiment: human SIAE inhibitors, retest, confirmation, biochemical, fluorescence polarization, FP-Rh probe, triplicate (AID 1117263);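 also: 0% = SIAE with DMSO and probe and 100% = probe without SIAE; inhibitors lower polarization as more probe stays unbound to SIAE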
# Details: SIAE FP-Rh activity-based probe, at 9.66 µM, active compounds read high
row,SMILES,inhibition
1,CN1CCCCC1COC(=O)C1(O)c2ccccc2CCc2ccccc21 (stereo not drawn),inactive: 2.2%
2,CP(=O)(Nc1ccccn1)Oc1ccc(Cl)cc1 (stereo not drawn),active: 53%
3,CP(=O)(NC(=O)Nc1ccccc1)Oc1ccccc1 (stereo not drawn),active: 74.9%
